# Test results as given in ChEMBL document CHEMBL2396616, “Development and characterization of a promising fluorine-18 labelled radiopharmaceutical for in vivo imaging of fatty acid amide hydrolase” (Bioorg Med Chem, 2013).
# Chains of the proteins cited; added tags and fusions are not shown.
# UniProt P97612, whole entry: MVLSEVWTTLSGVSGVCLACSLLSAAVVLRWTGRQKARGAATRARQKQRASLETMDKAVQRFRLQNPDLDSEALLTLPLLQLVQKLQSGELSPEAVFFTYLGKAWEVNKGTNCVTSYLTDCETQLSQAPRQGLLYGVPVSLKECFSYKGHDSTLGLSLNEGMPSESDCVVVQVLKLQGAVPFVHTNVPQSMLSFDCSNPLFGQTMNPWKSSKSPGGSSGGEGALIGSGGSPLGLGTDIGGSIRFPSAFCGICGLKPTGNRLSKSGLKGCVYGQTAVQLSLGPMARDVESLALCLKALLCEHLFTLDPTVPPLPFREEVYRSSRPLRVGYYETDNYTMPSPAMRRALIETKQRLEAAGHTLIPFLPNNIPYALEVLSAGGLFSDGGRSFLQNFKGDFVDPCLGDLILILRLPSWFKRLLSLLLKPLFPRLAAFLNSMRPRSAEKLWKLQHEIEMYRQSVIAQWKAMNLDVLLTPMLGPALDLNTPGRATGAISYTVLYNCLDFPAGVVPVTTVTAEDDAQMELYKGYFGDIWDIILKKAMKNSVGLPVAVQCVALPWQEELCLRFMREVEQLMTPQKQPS
# Biological target: Fatty-acid amide hydrolase 1 (Rattus norvegicus) (UniProt P97612)
# Test: Irreversible inhibition of FAAH in rat brain homogenates using [3H]anandamide as substrate
# Type: tissue-based
structure (smiles),measurement,value
O=C(NCCCCCF)Oc1cccc(C2=NCCO2)c1,inhibition,Active

# Active and inactive are the calls of the source. No cut-off for these calls is given here.
